Laboratory results reported in patent US8569379B2, “Use of rasagiline for the treatment of olfactory dysfunction” (Teva Pharmaceutical Industries Ltd., priority 2010, dated 2013).

System: alpha-synuclein over-expressing (mutants) mice (Thy1-aSyn)
Conditions: α-syn mutants receiving rasagiline; group mean, n = 19
Excerpt: Transgenic mice overexpressing alpha-synuclein under the Thy1 promoter (Thy1-aSyn) have high levels of alpha-synuclein expression throughout the brain but no loss of nigrostriatal dopamine neurons up to 8 months. […] Overexpression of alpha-synuclein is sufficient to cause olfactory deficits in mice similar to that observed in patients with PD (2).
The time periods that mice spent sniffing lemon and lime were compared. The testing parameters were percentage of time of sniffing lemon out of total time of sniffing and percentage of time of sniffing lime out of total time of sniffing.

SMILES: C#CCN[C@@H]1CCc2ccccc21 [Rasagiline, R(+)-N-propargyl-1-aminoindan]
- % Time sniffing Lemon: 47.4%
